Patent US11254668B2, “Pyrazolo[1,5-A]pyrazin-4-yl and related derivatives” (Pfizer Inc., priority 2017, dated 2022)

Chains of the proteins cited; added tags and fusions are not shown. Residues count along the entry.
UniProt P29597, 897-1176: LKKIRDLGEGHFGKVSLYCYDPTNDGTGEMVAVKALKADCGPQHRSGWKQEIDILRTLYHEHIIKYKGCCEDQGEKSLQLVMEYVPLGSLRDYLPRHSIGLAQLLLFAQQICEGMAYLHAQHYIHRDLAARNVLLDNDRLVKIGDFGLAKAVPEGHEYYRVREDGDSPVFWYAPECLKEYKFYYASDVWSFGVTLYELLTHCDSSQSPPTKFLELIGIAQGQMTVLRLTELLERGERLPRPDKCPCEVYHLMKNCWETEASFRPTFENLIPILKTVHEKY
UniProt P23458, 875-1153: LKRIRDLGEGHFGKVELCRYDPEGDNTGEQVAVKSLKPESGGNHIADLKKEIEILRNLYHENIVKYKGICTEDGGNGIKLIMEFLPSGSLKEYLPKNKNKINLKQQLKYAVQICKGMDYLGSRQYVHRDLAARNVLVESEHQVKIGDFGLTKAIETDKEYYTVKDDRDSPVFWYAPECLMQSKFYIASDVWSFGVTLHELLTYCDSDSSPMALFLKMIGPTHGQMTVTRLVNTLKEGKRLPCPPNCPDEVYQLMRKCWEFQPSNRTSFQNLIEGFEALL
UniProt O60674, 849-1124: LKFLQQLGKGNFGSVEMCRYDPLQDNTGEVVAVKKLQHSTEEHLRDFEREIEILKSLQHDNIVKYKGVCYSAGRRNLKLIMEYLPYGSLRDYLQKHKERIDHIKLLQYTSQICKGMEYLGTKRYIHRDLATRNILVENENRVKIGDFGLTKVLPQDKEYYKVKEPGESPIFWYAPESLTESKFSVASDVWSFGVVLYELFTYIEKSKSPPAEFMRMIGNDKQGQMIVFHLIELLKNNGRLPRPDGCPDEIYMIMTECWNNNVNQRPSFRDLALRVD
UniProt P52333, 822-1111: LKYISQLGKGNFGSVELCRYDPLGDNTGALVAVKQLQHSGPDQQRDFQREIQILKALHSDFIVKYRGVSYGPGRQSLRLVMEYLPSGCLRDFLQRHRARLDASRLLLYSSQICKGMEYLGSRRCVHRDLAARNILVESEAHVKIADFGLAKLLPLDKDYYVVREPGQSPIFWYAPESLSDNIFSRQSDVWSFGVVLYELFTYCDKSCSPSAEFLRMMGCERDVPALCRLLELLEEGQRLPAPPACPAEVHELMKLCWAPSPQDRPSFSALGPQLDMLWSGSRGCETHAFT

Legend:
Format in all cases: biochemical
[1] = molecular target: TYK2 (Homo sapiens (Human), UniProt P29597); experiment: JAK Caliper Enzyme Assay at 1 mM ATP, TYK2
Protocol: (§1) Compounds of the invention were evaluated by in vitro methods to determine their respective ability to inhibit the JAK kinases (TYK2, JAK1, JAK2, JAK3).
(§2) The human JAK inhibitory activity was determined by using a microfluidic assay to monitor phosphorylation of a synthetic peptide by the recombinant human kinase domain of each of the four members of the JAK family, JAK1, JAK2, JAK3 and TYK2. […] Each assay condition was optimized for enzyme concentration and room temperature incubation time to obtain a conversion rate of 20% to 30% phosphorylated peptide product. Reactions were terminated by the addition of stop buffer containing EDTA. Utilizing the LabChip 3000 mobility shift technology (Caliper Life Science), each assay reaction was sampled to determine the level of phosphorylation. This technology is separation-based, allowing direct detection of fluorescently labeled substrates and products. […]
(§3) The data was collected using the HTS Well Analyzer software from Caliper Life Sciences. The data output for data analysis is the percent product converted calculated on peak height (Equation 1). % product converted=100*((product)/(product+substrate)) Equation 1: […]
(§4) The percent effect at each compound concentration was calculated based on the positive and negative control well contained within each assay plate (Equation 2). […]

[2] = molecular target: JAK1 (Homo sapiens (Human), UniProt P23458); experiment: JAK Caliper Enzyme Assay at 1 mM ATP, JAK1
Protocol: as §1, §2, §3, §4

[3] = molecular target: JAK2 (Homo sapiens (Human), UniProt O60674); experiment: JAK Caliper Enzyme Assay at 1 mM ATP, JAK2
Protocol: as §1, §2, §3, §4

[4] = molecular target: JAK3 (Homo sapiens (Human), UniProt P52333); experiment: JAK Caliper Enzyme Assay at 1 mM ATP, JAK3
Protocol: as §1, §2, §3, §4

IC50 ([1]; JAK Caliper enzyme assay) | IC50 [2] | IC50 [1] | IC50 [3] | IC50 [4] | Compound
2320 nM |  |  |  |  | N#CC[C@]1(n2ncc(-c3cc(-c4cncc(N)n4)cc4ncccc34)n2)C[C@H](C#N)C1 [Example 397, trans-3-{4-[7-(6-aminopyrazin-2-yl)quinolin-5-yl]-2H-1,2,3-triazol-2-yl}-3-(cyanomethyl)cyclobutanecarbonitrile]
 | > 10000 nM | 2320 nM | > 10000 nM | > 10000 nM | [trans-3-(1-methyl-1H-pyrazol3-[7-(1H-pyrazol-4-yl)-1,6-naphthyridin-5-yl]-1H-pyrazol-1-yl}cyclobutyl]acetonitrile [Example 87]

Like-named read-outs stand apart in the source and are kept apart here.
